The values that follow come from PubChem BioAssay AID624465 (National Center for Advancing Translational Sciences (NCATS), 2012).

Protein sequences, listed by entry. Tags and fused reporters are not part of them.
UniProt P14416, whole entry: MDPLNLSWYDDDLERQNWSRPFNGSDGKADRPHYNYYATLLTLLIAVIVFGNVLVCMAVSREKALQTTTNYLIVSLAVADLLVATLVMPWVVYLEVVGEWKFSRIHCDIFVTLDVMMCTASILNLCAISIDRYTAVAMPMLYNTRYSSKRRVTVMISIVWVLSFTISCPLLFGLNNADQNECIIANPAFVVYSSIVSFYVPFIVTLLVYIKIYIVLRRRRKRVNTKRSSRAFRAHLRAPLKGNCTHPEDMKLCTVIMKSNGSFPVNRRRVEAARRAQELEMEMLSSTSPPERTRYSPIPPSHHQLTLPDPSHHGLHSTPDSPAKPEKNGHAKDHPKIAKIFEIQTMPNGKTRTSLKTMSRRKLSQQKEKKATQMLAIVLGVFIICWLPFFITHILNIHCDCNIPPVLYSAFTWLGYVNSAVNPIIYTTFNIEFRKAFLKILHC

Molecules are shown by their SMILES. The list shows a part of the results, in another mix than the full data. Some salts or complexes appear as unconnected parts, following the source record. The source made the active and inactive calls. Rule as the data show it: active = activation above about 40%; inconclusive = between about 15% and that limit; inactive = weaker than that.

This experiment addresses D(2) dopamine receptor (Homo sapiens) (UniProt P14416). Description: Beta-Arrestin HTS for Positive Allosteric Modulators of the Human D2 Dopamine Receptor: Agonists. The following applies: DiscoveRx PathHunter D2 beta-arrestin, luminescence, 90 min; stronger effect = higher value; 100% = 57 uM dopamine signal. The method, boiled down:
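Agonist mode: compounds alone added to overnight-plated D2 PathHunter cells for 90 min at 37 C, with 57 uM final dopamine (EC100) defining full response. Beta-arrestin recruitment detected by chemiluminescent reagent, read after 1 h at ambient temperature.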
For `COc1cccc(C(=O)N(c2cc(C)cc(C)c2)C2CCN(C(=O)OC(C)(C)C)CC2)c1`, the activation is inactive: -3.87%. Take `CCC(CO)(C(=O)OC1CN2CCC1CC2)c1ccccc1` (stereo not drawn): the activation is inactive: 2.75%. `CN1CCC(Nc2ccc(Cl)cc2)CC1`: the activation was inactive: -2.73%. As to `CN1CCC(Nc2ccc(F)c(Cl)c2)CC1`, the activation was inactive: -3.99%. Turning to `CCOc1ncccc1C(=O)NCC1(N2CCOCC2)CCCCC1`, the activation is inactive: -2.23%. Turning to `O=C(O)C1(Nc2ccccc2)CCN(Cc2ccccc2)CC1`, the activation was inactive: 0.819%. To `CC(C)(C)OC(=O)N1CCC(Nc2ccccc2)CC1` belongs inactive: -3.29%. To `CCCOc1ccc(C(=O)NCC2(N(C)C)CCCCC2)cc1` belongs inactive: -3.6%; to `O=c1[nH]c2ccccc2n1C1CCN(C(c2cc3ccccc3o2)c2nnnn2C2CCCC2)CC1` (stereo not drawn), inactive: 5.8%. Regarding `CC(C)(C)n1nnnc1C(c1ccnc2ccccc12)N1CCC(n2c(=O)[nH]c3ccccc32)CC1` (stereo not drawn), the activation is inactive: 3.92%.

`COc1ccc(C(c2nnnn2C2CCCCC2)N2CCC(n3c(=O)[nH]c4ccccc43)CC2)cc1` (stereo not drawn): the activation is inactive: 6.71%.

On to `CCN1CCC(Nc2cccc(F)c2)CC1`, for which the activation was inactive: -3.36%. On to `Cc1ccccc1NC1(C#N)CCN(Cc2ccccc2)CC1`, for which the activation is inactive: -0.577%. `Cn1c(=O)[nH]cc(N(CCCl)CCCl)c1=O`: the activation is inactive: -1.66%. Consider `CN(C)c1ccc(C(=O)NCC2(N3CCCCC3)CCCCC2)cc1`, for which the activation is inactive: -6.19%. Under `O=C(NCC1(N2CCCCC2)CCCCC1)c1ccco1` stands inactive: 5.09%.

For `CCC(c1nnnn1C1CCCCC1)N1CCC(n2c(=O)[nH]c3ccccc32)CC1` (stereo not drawn), the activation is inactive: -3.14%. Consider `CC(=O)N(c1ccccc1)C1CCNCC1`, for which the activation was inactive: -3.28%. Regarding `O=c1[nH]c2ccccc2n1C1CCN(C(c2ccnc3ccccc23)c2nnnn2C2CCCCC2)CC1` (stereo not drawn), the activation was inactive: 3.5%. Consider `COc1cc(OC)cc(C(=O)NCC2(N3CCCCC3)CCCCC2)c1`, for which the activation is inactive: -3.27%.

Take `Cc1ccc(Nc2c([N+](=O)[O-])cc([N+](=O)[O-])cc2[N+](=O)[O-])cc1`: the activation is inactive: 3.52%. To `Fc1ccccc1NC1CCN(Cc2ccccc2)CC1` belongs inactive: 1.6%; to `Cc1ccc(C(=O)NCC2(N3CCCCC3)CCCCC2)o1`, inactive: -0.482%. To `Cc1ccc(NC2(C#N)CCN(Cc3ccccc3)CC2)cc1` belongs inactive: 0.712%; to `O=c1[nH]c2ccccc2n1C1CCN(C(c2ccccc2)c2nnnn2C2CCCCC2)CC1` (stereo not drawn), inactive: 5.78%. Consider `COc1cc(C(=O)NCC2(N(C)C)CCCCC2)ccc1OC(F)F`, for which the activation was inactive: 0.547%. Take `CCOC(=O)N1CCC(Nc2cccc(C)c2)CC1`: the activation is inactive: -1.38%. With `O=c1[nH]c2ccccc2n1C1CCN(C(c2cccc3ccccc23)c2nnnn2C2CCCC2)CC1` (stereo not drawn), the activation was inactive: -2.02%.

With `O=C1CCN(Cc2ccccc2)CC1`, the activation is inactive: -6%. For `CC(C)(C)n1nnnc1C(c1ccccc1)N1CCC(n2c(=O)[nH]c3ccccc32)CC1` (stereo not drawn), the activation is inactive: 11.1%. With `CCOc1ccc(C)cc1CN(CCCl)CCCl`, the activation was inactive: -0.262%. Regarding `COc1ccc(NC2CCN(CCc3ccccc3)CC2)c(OC)c1`, the activation was inactive: -2.45%. As to `CCOC(=O)N1CCC(Nc2ccc(F)cc2)CC1`, the activation was inactive: -4.96%. Take `O=C(NCC1(N2CCCCC2)CCCCC1)c1ccc(F)cc1`: the activation was inactive: 0.468%. For the molecule `O=P1(N(CCCl)CCCl)SCCCS1`, the activation is inactive: 1.44%.

As for `CCCCOc1ccc(C(=O)NCC2(N3CCOCC3)CCCCC2)cc1`, the activation is inactive: 5.7%.

For `Cc1cc(C)cc(N(C(=O)c2ccccc2)C2CCN(C(=O)OC(C)(C)C)CC2)c1`, the activation was inactive: -0.783%. To `O=c1[nH]c2ccccc2n1C1CCN(C(c2ccccc2OC(F)(F)F)c2nnnn2C2CCCCC2)CC1` (stereo not drawn) belongs inactive: -3.22%. With `O=C(NCC1(N2CCCCC2)CCCCC1)c1ccc(Cl)nc1`, the activation is inactive: -0.731%. Turning to `O=C(NCC1(N2CCOCC2)CCCCC1)c1cc2ccccc2o1`, the activation is inactive: -2.28%. `O=C1C(O)=C([N+](=O)[O-])C(=O)C(O)=C1[N+](=O)[O-]`: the activation is inactive: 1.7%.

In the case of `COc1ccc(Cl)cc1C(=O)NCC1(N2CCOCC2)CCCCC1`, the activation is inactive: -7.51%. Take `O=C(OC1CN2CCC1CC2)C1c2ccccc2Oc2ccccc21` (stereo not drawn): the activation was inactive: -2.29%. With `O=c1[nH]c2ccccc2n1C1CCN(C(c2cc3ccccc3o2)c2nnnn2C2CCCCC2)CC1` (stereo not drawn), the activation is inactive: 3.55%. For `N#CC1(Nc2ccccc2)CCN(Cc2ccccc2)CC1`, the activation was inactive: -10.6%.

On to `O=C(NCC1(N2CCCCC2)CCCCC1)c1ccc(Cl)s1`, for which the activation was inactive: 0.0206%. Regarding `CCCCn1nnnc1C(c1ccc(OC)cc1)N1CCC(n2c(=O)[nH]c3ccccc32)CC1` (stereo not drawn), the activation was inactive: 3.72%. Under `CCOC(=O)N1CCC(Nc2ccc(OC)cc2)CC1` stands inactive: 1.62%; under `CCC(c1nnnn1C1CCCC1)N1CCC(n2c(=O)[nH]c3ccccc32)CC1` (stereo not drawn), inactive: -0.289%; under `COc1ccc(C(=O)NCC2(N3CCCCC3)CCCCC2)c(OC)c1OC`, inactive: -1.99%.

On to `CC(C)(C)OC(=O)N1CCC(N(C(=O)c2ccccc2)c2ccc(F)cc2)CC1`, for which the activation is inactive: 0.0967%. For the molecule `COc1ccc(C(=O)NCC2(N3CCCCC3)CCCCC2)cc1`, the activation was inactive: -0.912%.

As for `CCCCn1nnnc1C(CC)N1CCC(n2c(=O)[nH]c3ccccc32)CC1` (stereo not drawn), the activation is inactive: -5.67%.

Turning to `O=C(NCC1(N2CCCCC2)CCCCC1)c1cccs1`, the activation is inactive: -4.41%.

Regarding `O=C(NCC1(N2CCCCC2)CCCCC1)c1ccc(=O)[nH]c1`, the activation is inactive: -0.481%. To `Cc1cccc(NC2(C#N)CCN(Cc3ccccc3)CC2)c1` belongs inactive: -1.52%. On to `CSc1ccccc1C(=O)NCC1(N2CCCCC2)CCCCC1`, for which the activation was inactive: -2.12%.

Consider `O=C(OC1CN2CCC1CC2)c1ccc([N+](=O)[O-])cc1` (stereo not drawn), for which the activation is inactive: -0.655%. Under `O=C(NCC1(N2CCCCC2)CCCCC1)c1cncc(Br)c1` stands inactive: 2.93%; under `COc1ccc2c(c1O)-c1c(O)c(OC)cc3c1[C@H](C2)[N+](C)(C)CC3.O=[N+]([O-])c1cc([N+](=O)[O-])c([O-])c([N+](=O)[O-])c1[O-]`, inactive: 1.91%. Under `CN1CCC(Nc2cccc(F)c2)CC1` stands inactive: 2.41%; under `O=[N+]([O-])c1cc([N+](=O)[O-])c(Nc2ccc(Cl)cc2)c([N+](=O)[O-])c1`, inactive: 8.89%; under `COc1ccc(C(c2nnnn2C2CCCC2)N2CCC(n3c(=O)[nH]c4ccccc43)CC2)cc1` (stereo not drawn), inactive: 4.62%. Take `CCCOc1ccc(C(=O)NCC2(N(C)C)CCCCC2)cc1OC`: the activation is inactive: -0.78%. In the case of `Cc1ccc(C(=O)NCC2(N(C)C)CCCCC2)o1`, the activation is inactive: 2.51%. Under `CC(C)c1ccc(NC2CCN(C(=O)OC(C)(C)C)CC2)cc1` stands inactive: 0.114%. To `CCCCn1nnnc1C(c1ccccc1OC(F)(F)F)N1CCC(n2c(=O)[nH]c3ccccc32)CC1` (stereo not drawn) belongs inactive: 5.34%; to `O=[N+]([O-])c1cc([N+](=O)[O-])c(OC2CCCCC2O)c([N+](=O)[O-])c1` (stereo not drawn), inactive: -9.36%. Take `CN(C)c1cccc(C(=O)NCC2(N3CCCCC3)CCCCC2)c1`: the activation is inactive: -2.17%.

Regarding `COc1ccc(CN(CCCl)CCCl)cc1Cl`, the activation is inactive: -1.56%. As to `CCC(c1nnnn1C(C)(C)C)N1CCC(n2c(=O)[nH]c3ccccc32)CC1` (stereo not drawn), the activation was inactive: -2.88%. `O=C(NCC1(N2CCOCC2)CCCCC1)c1cc(F)c(F)cc1Cl`: the activation is inactive: -1.95%.

On to `COc1cc(OC)c(C(=O)NCC2(N(C)C)CCCCC2)cc1OC`, for which the activation is inactive: -4.27%. Regarding `CCCCn1nnnc1C(c1ccnc2ccccc12)N1CCC(n2c(=O)[nH]c3ccccc32)CC1` (stereo not drawn), the activation is inactive: 4.67%.

With `O=C(NCC1(N2CCCCC2)CCCCC1)c1cccc(C(F)(F)F)c1`, the activation is inactive: -5.01%. To `COc1cc(C(=O)NCC2(N3CCCCC3)CCCCC2)ccc1OC(F)F` belongs inactive: -2.48%; to `O=C(NCC1(N2CCOCC2)CCCCC1)c1cc(=O)[nH]c2ccccc12`, inactive: -1.34%; to `CCCCn1nnnc1C(c1cccc2ccccc12)N1CCC(n2c(=O)[nH]c3ccccc32)CC1` (stereo not drawn), inactive: 3.47%. On to `CN1CCN(CCOC(=O)C(O)(c2ccccc2)c2ccccc2)CC1`, for which the activation was inactive: 0.507%.

As for `COc1ccc(NC2CCN(C(=O)OC(C)(C)C)CC2)cc1`, the activation is inactive: -2.69%. To `CC(C)c1ccc(C(=O)NCC2(N3CCOCC3)CCCCC2)cc1` belongs inactive: -2.97%; to `O=C(NCC1(N2CCCCC2)CCCCC1)c1ccc(OC(F)F)cc1`, inactive: -1.17%; to `CC(C)(C)n1nnnc1C(c1ccccc1OC(F)(F)F)N1CCC(n2c(=O)[nH]c3ccccc32)CC1` (stereo not drawn), inactive: 5.58%. On to `N#CC1(Nc2ccccc2)CCN(CCc2ccccc2)CC1`, for which the activation is inactive: -1.73%. Regarding `O=c1[nH]c2ccccc2n1C1CCN(C(c2ccccc2OC(F)(F)F)c2nnnn2C2CCCC2)CC1` (stereo not drawn), the activation was inactive: -1.09%. With `CCN1CCC(Nc2ccc(Cl)cc2)CC1`, the activation was inactive: -3.87%. Under `CSc1ccc(C(=O)NCC2(N3CCOCC3)CCCCC2)cc1` stands inactive: -2.08%.

For the molecule `O=C(NCC1(N2CCCCC2)CCCCC1)c1cccc([N+](=O)[O-])c1`, the activation was inactive: 2.64%.
